The entries are a selection whose mix differs from that of the whole data set. Some of these compounds have results that are not shown, active ones among them. Activity calls are given as the source filed them. Cut-off read from the data, not from the text of the source: active = cytotoxicity above about 50%; inactive = the rest.
experiment: cytotoxicity in HT1080 fibrosarcoma cells, cell-based, fluorescence readout (AID 620); details: HT1080 viability, at 10 µM, active compounds read high;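 note: cells exposed to compound overnight then 4 h with Alamar Blue; 0% = vehicle DMSO and 100% = killing control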

Question: With `CN(C)c1cccc(C(=O)NCC2(N(C)C)CCCCC2)c1` as the compound, how does the cytotoxicity read?
Answer: inactive: -1.5%

Question: Which cytotoxicity does the source give for `O=C(OC1CN2CCC1CC2)C(CO)(c1ccccc1)c1ccccc1` (configuration not stated) here?
Answer: inactive: -7.7%
